pIC50: −log10 of the molar value.

In general, pIC50 refers to −log10 of the IC50, conventionally taken in molar units. High values mean a low IC50, low ones a high IC50.

For this experiment, the target named is T1, glucocorticoid receptors (Rattus norvegicus, UniProt P06536).
T1 sequence (P06536 1-795): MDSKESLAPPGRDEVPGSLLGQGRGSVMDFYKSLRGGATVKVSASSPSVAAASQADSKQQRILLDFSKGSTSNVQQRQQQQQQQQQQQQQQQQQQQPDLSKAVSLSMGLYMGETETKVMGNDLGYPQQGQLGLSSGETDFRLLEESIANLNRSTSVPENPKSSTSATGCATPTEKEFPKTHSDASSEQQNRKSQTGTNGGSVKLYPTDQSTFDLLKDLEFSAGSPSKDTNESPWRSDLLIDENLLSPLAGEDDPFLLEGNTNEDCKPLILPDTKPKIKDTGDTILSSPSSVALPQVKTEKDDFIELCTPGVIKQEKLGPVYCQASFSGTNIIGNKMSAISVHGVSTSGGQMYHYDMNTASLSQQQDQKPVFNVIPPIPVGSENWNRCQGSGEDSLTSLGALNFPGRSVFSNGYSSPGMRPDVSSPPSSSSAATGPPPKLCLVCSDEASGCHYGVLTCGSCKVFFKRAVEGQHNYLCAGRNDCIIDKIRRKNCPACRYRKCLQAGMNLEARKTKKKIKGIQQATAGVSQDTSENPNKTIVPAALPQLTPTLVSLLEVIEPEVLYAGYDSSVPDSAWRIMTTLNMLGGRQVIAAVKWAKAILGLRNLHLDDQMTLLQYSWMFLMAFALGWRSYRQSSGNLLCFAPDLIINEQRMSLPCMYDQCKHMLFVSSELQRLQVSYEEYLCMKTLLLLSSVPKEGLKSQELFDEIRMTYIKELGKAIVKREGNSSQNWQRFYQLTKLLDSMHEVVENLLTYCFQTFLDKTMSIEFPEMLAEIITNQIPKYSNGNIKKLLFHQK
The experiment is described as follows: Glucocorticoid binding assay (competitive binding with [6,7-3H]triamcinolone acetonide). On the procedure:
The assay was used to determine whether the tested compounds bound to the glucocorticoid binding site and is based on procedures set forth in the literature. […] Int. […] Briefly, using competitive binding of with the radioligand “[6,7-^3H]triamcinolone acetonide” (30-50 Cl/mmol), reactions were carried out in 50 mM KH2PO4 (pH 7.4) containing 10 mM sodium molybdate and 10 mM α-monothioglycerol at 0° C. for 16 hours. The glucocorticoid receptors were obtained from rat brains. The reactions were terminated by rapid vacuum filtration onto glass fiber filters. Radioactively trapped onto the filters is determined and compared to control values. […] A higher IC50 value reflects a weaker binding affinity.

The molecule `C[C@]12CCC(=O)C=C1CC[C@@H]1[C@@H]2C(=O)C[C@@]2(C)[C@H]1CC[C@]2(O)C(=O)CO` [Cortisone] showed a pIC50 of 5.41.

These data come from patent US11464788B2, “Oligomer-corticosteroid conjugates” (Nektar Therapeutics, priority 2007, dated 2022).
